In patent US20230091561A1, “METHODS OF TREATING PRIMARY PROGRESSIVE MULTIPLE SCLEROSIS USING AN INHIBITOR OF BRUTON'S TYROSINE KINASE” (Genentech, Inc., priority 2020, published 2023):
Where two headings read alike, the source gives them in different places.

Protein sequences, listed by entry. Tags and fused reporters are not part of them. Lines headed by an entry give the natural chain unless they say otherwise; changes in a name come on top.
UniProt Q06187: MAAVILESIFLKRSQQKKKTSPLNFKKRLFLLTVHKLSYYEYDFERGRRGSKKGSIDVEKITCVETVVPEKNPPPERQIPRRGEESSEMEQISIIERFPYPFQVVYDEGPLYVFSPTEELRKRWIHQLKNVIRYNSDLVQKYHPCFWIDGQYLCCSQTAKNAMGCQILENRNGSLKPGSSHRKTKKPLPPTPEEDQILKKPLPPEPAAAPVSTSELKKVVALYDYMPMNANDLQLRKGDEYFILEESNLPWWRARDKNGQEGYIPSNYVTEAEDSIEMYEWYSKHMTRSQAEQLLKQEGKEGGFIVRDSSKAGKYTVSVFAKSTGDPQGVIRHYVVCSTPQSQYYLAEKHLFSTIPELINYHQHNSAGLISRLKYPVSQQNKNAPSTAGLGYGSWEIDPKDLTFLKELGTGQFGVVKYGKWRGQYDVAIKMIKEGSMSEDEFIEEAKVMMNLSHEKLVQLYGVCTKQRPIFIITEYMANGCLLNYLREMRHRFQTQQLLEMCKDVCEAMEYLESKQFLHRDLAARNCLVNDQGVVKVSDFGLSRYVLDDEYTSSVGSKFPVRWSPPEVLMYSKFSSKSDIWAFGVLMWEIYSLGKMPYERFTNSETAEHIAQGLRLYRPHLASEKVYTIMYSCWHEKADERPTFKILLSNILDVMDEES

What was measured:
[1] = system: panel of over 200 human kinases; details: footnote a (Crawford et al.), cited from earlier work
TXK = biological target: T1, TXK (Homo sapiens, UniProt P42681); experiment: Kinase selectivity IC50, TXK
T1 sequence (P42681 1-527): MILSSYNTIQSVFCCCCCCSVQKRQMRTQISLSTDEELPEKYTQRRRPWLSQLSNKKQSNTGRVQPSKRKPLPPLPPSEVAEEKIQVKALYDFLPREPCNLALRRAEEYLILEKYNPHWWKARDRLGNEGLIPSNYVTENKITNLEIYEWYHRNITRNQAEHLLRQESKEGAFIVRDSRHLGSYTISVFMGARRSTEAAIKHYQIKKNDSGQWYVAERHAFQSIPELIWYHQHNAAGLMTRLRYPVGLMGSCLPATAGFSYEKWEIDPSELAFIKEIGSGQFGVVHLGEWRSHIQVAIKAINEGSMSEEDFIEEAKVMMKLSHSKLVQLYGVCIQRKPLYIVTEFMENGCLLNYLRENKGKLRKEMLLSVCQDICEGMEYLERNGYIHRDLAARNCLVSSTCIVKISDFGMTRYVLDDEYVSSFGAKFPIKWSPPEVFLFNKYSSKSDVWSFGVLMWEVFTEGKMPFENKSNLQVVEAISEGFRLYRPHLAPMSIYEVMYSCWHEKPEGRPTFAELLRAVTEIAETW

[2] = system: panel of over 200 human kinases; experiment: Kinase selectivity panel screen, kinases inhibited >50%; type: biochemical
Description: The rate of FEN release from the BTK•FEN complex was quantified in a biochemical preincubation-dilution experiment, where BTK activity was recovered with a rate constant kw and residence time 1/koff.

BTK [3] = biological target: T2, BTK (Homo sapiens, UniProt Q06187); details: read-out: BTK IC50; footnote a (Crawford et al.); cited from earlier work
BTK [4] = biological target: T2, BTK; details: footnote a (Crawford et al.), cited from earlier work
[5] = biological target: N-terminal His-tagged full-length recombinant human BTK (Homo sapiens, UniProt Q06187); experiment: biochemical; details: competitive binding kinetics

## C=CC(=O)N1CCC(CNc2ncnc(N)c2-c2ccc(Oc3ccccc3)cc2)CC1 [Evobrutinib]
[1]; listed as EVO
  # off-target kinases >50% INH/# total kinases tested @ 1 μM: 3/221
[1]
  # off-target kinases >50% INH/# total kinases tested @ 1 μM: 3/221 ^a
TXK
  IC50: 254 nM
[2]
  off-target kinases inhibited by >50% / kinases tested at 10 μM: 18/218

## C[C@H]1CN(C2COC2)CCN1c1ccc(Nc2cc(-c3ccnc(N4CCn5c(cc6c5CC(C)(C)C6)C4=O)c3CO)cn(C)c2=O)nc1 [Fenebrutinib]
BTK [3]
  IC50: 2.3 nM
[1]; listed as FEN
  # off-target kinases >50% INH/# total kinases tested @ 1 μM: 3/286
[1]
  # off-target kinases >50% INH/# total kinases tested @ 1 μM: 2/286 ^a
BTK [4]; listed as FEN
  BTK residence time (jump dilution vs. 50 μM ATP): 18.3 h
BTK [4]
  BTK residence time (jump dilution vs. 50 μM ATP): 18.3 ^a h
[5]; BTK Ki*
  Ki: 0.17 nM
[5]; BTK Ki, non-covalent inhibitor
  Ki: 7.1 nM
